In PubChem BioAssay AID540317 (National Center for Advancing Translational Sciences (NCATS), 2011):
The entries are a selection whose mix differs from that of the whole data set. Results filed as inconclusive are left out. The source made the active and inactive calls. Calls come from the whole dose curve; as a rule, active = well fitted inhibition curve with a large enough effect; inconclusive = small, poorly fitted or top-dose-only effect; inactive = no such curve, though single readings can be large or run the other way.

Protein sequences, listed by entry. Tags and fused reporters are not part of them.
UniProt P83916, whole entry: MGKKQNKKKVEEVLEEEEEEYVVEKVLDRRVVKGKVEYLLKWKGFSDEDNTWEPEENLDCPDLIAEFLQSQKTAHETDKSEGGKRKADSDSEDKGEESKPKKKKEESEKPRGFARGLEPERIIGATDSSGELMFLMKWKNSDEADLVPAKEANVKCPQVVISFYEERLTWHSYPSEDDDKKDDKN

biological target: Chromobox protein homolog 1 (Homo sapiens) (UniProt P83916); experiment: HTS for Inhibitors of HP1-beta Chromodomain Interactions with Methylated Histone Tails; settings: AlphaScreen HP1-beta / biotin-H3K9me3 peptide binding; at 114 µM (top of the series); note: nearly all actives have a fitted effect of over 70% in size

Row | Compound | activity change, negative = inhibition
1 | CCN(CC)C(=S)SC(NC=O)C(Cl)(Cl)Cl (stereo unspecified) | inactive: 17.6%
